In paper PMC5343495 (Scientific Reports, 2017):

Legend:
thrombin = target: T1, thrombin (Homo sapiens, UniProt P00734); experiment: Thrombin inhibition assay (SensoLyte 520 FRET substrate kit); type: biochemical; details: 0.13 μg/ml thrombin, 1 hour at 37 °C
T1 construct: Thrombin, a multifunctional serine protease generated by prothrombin cleavage; purchased AnaSpec, Inc., San Jose, CA

[1] = target: T2, Thrombin from human plasma (Homo sapiens, UniProt P00734); experiment: SPR binding affinity measurement (Biacore T200, thrombin-immobilized CM5 chip); details: Table 2
T2 construct: Thrombin, a multifunctional serine protease generated by prothrombin cleavage; purchased Sigma-Aldrich Chemical Co. (St. Louis, MO, USA) T6884; host or cells: human plasma

IC50 (thrombin): 0.0157 µM
Kd [1]: 53.8 µM
Compound: CC1CNc2c(cccc2S(=O)(=O)N[C@@H](CCCNC(=N)N)C(=O)N2CC[C@@H](C)C[C@@H]2C(=O)O)C1 (some centres unmarked) [Argatroban, reference compound]
